Results: US6953785B2, “Estra-1,3,5(10)-triene derivatives” (priority 2000, dated 2005)

Chains of the proteins cited; added tags and fusions are not shown. Residues count along the entry.
UniProt P08842, 22-583 limits assumed: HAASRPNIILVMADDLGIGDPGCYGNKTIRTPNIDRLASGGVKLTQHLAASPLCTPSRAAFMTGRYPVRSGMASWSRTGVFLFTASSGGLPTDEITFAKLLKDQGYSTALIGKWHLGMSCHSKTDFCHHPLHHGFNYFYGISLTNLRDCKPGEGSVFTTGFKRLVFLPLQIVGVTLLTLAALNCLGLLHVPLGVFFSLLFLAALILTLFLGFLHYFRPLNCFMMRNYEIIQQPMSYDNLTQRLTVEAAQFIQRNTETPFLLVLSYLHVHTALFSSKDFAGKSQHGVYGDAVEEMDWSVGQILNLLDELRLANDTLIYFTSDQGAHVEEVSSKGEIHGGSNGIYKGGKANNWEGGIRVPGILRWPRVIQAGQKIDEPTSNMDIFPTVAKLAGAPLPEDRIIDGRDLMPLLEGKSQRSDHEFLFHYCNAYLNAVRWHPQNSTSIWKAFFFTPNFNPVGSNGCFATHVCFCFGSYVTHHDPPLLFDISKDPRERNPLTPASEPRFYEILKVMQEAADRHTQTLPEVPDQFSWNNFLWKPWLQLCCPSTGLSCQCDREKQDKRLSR

Biological target: recombinant human estrone sulfatase (Homo sapiens, UniProt P08842)
Experiment: Estrone sulfatase (steroid sulfatase) inhibition test (Method B), 4-methylumbelliferyl sulfate substrate
Conditions: read-out: Inhibitory Activity against Steroid Sulfatase IC50, 4-methylumbelliferyl sulfate 0.3 mmol/L, pH 7.5, 37° C., 1 hour
Procedure: Estrone Sulfatase (Steroid Sulfatase) Inhibition Test (Method B)
4-Methylumbelliferyl sulfate (final concentration 0.3 mmol/L), recombinant human estrone sulfatase (7.8 ng/well) and an estra-1,3,5(10)-triene derivative of each test concentration (the estra-1,3,5(10)-triene derivative was dissolved in 0.001 mL of DMSO) were added to a phosphate buffer (pH 7.5, final volume 0.1 mL) containing 0.28 mol/L of sucrose and 0.04 mol/L of nicotinamide, and the mixture was subjected to enzymatic reaction at 37° C. for 1 hour. The recombinant human estrone sulfatase used herein was prepared from CHO (Chinese hamster ovary) cells, which were transfected with a human estrone sulfatase gene, after partial purification. After the enzymatic reaction, an aqueous solution of 2 mol/L glycine-sodium hydroxide (pH 10.3, 0.13 mL) was added thereto followed by stirring. Using a fluorescent plate reader (Cyto Fluor II), the fluorescent intensity of 4-methylumbelliferone formed in the system was measured. The measurement was carried out at one time by duplication, and the assay fluctuation was 10% or less. The enzymatic reaction in the absence of the test compound was also carried out simultaneously. The inhibitory activity against estrone sulfatase of the test compound of each concentration was calculated according to the equation shown below. […]

## CC(C)(O)C1=CCC2C3CCc4cc(OS(N)(=O)=O)ccc4C3CCC12C (stereo not shown)
  IC50: 13 nM
